# Assay results reported in patent US9085561B2, “Cyclic urea- or lactam-substituted quinoxaline-type piperidines as ORL-1 modulators” (priority 2012, dated 2015).
# Sequences of proteins named here, by UniProt entry; tags and fusion partners are left off. A change or cut given only in a name is not applied to a line headed by its entry.
# UniProt P10635, whole entry, looked up: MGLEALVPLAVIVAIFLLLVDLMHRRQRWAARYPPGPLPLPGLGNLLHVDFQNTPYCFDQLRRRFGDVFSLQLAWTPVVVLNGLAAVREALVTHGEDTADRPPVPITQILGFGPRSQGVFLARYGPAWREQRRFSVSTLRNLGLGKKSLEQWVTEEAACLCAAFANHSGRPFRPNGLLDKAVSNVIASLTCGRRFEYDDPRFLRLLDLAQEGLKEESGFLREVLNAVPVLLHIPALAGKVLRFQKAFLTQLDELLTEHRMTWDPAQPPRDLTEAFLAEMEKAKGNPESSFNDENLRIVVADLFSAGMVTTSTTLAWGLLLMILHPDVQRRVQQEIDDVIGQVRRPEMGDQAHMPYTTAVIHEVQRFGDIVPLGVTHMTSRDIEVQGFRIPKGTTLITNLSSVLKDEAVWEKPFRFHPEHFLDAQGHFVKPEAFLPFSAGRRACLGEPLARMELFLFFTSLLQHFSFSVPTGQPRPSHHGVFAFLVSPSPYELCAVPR
# UniProt P41143: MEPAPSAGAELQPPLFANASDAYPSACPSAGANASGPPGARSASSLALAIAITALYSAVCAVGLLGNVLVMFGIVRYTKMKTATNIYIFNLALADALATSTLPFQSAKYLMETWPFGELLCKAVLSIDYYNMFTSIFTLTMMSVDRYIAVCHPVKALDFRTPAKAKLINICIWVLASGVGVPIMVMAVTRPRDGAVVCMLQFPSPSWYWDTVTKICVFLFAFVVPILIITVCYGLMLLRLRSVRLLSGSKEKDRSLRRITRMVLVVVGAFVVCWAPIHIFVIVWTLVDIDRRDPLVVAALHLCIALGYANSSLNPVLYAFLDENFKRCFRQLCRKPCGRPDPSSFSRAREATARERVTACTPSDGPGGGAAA
# UniProt P35372: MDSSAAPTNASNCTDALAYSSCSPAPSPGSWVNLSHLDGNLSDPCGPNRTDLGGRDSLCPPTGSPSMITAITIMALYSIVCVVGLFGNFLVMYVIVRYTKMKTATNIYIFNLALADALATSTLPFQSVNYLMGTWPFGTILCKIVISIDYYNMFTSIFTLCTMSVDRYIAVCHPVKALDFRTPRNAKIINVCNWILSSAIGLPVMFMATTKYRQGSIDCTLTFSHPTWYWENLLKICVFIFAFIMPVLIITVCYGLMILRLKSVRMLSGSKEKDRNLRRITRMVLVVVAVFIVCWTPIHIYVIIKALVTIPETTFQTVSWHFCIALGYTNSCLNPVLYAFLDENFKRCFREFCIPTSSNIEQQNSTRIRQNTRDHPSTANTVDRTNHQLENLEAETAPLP
# UniProt P41145: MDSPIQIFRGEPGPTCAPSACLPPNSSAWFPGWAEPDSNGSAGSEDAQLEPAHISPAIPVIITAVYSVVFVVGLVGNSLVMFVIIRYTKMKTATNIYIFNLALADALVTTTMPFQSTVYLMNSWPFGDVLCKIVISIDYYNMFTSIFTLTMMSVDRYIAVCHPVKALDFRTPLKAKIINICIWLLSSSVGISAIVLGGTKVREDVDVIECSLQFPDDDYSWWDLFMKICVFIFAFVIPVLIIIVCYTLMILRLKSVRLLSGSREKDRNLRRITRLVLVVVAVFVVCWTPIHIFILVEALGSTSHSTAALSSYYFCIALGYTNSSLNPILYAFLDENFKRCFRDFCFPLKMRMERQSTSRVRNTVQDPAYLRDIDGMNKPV
# UniProt P41146: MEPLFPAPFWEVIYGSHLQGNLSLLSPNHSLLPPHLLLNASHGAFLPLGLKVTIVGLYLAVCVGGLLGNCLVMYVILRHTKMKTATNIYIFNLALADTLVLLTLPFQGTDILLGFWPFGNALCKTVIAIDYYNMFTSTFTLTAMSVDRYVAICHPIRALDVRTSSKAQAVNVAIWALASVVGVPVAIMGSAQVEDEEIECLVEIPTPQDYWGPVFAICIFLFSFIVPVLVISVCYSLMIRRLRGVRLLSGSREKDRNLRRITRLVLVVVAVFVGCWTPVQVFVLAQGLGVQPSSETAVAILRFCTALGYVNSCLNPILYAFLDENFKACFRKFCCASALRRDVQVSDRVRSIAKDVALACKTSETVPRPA
# Tests used:
# human CYP2D6 = human CYP2D6 (Homo sapiens, UniProt P10635); assay: Cytochrome P450 2D6 inhibition (dextromethorphan O-demethylation, pooled human hepatic microsome); settings: read-out: CYP2D6 IC50; procedure of Example 45
# [1] = molecular target: recombinant delta opioid receptor expressed in CHO-K1 cells (Homo sapiens, UniProt P41143); assay: In vitro delta-opioid receptor binding assay ([3H]-Naltrindole displacement); settings: read-out: Ki [Average ± Std Deviation] Opioid Receptor Delta; binding to delta-opioid receptor, procedure of Example 43
# human μ-opioid receptor [2] = molecular target: T1, human μ-opioid receptor (Homo sapiens, UniProt P35372); assay: In vitro mu-opioid receptor [35S]GTPγS functional assay; format: biochemical; settings: read-out: GTPγS Opioid Receptor EC50 Mu [mean ± SEM]; procedure of Example 40
# kappa opioid receptor [3] = molecular target: T2, kappa opioid receptor (Homo sapiens, UniProt P41145); assay: In vitro kappa-opioid receptor [35S]GTPγS functional assay; settings: read-out: GTPγS Opioid Receptor EC50 Kappa [mean ± SEM]; procedure of Example 42
# [4] = molecular target: T3, human opioid receptor-like (ORL-1) (Homo sapiens, UniProt P41146); assay: In vitro ORL-1 receptor binding assay ([3H]-nociceptin displacement); settings: read-out: Ki [Average ± Std Deviation] ORL-1; binding to ORL-1 receptor, procedure of Example 37
# human μ-opioid receptor [5] = molecular target: T1, human μ-opioid receptor; assay: In vitro mu-opioid receptor binding assay ([3H]-diprenorphine displacement); settings: read-out: Ki [Average ± Std Deviation] Opioid Receptor Mu; binding to mu-opioid receptor, procedure of Example 39
# kappa opioid receptor [6] = molecular target: T2, kappa opioid receptor; assay: In vitro kappa-opioid receptor binding assay ([3H]-U69,593 displacement); settings: read-out: Ki [Average ± Std Deviation] Opioid Receptor Kappa; binding to kappa-opioid receptor, procedure of Example 41
# [7] = molecular target: T3, human opioid receptor-like (ORL-1); assay: In vitro ORL-1 receptor [35S]GTPγS functional assay; format: biochemical; settings: procedure of Example 38; for EC50: read-out: GTPγS ORL-1 EC50 [mean ± SEM]
# human δ-opioid receptors = human δ-opioid receptors (Homo sapiens, UniProt P41143); assay: In vitro delta-opioid receptor [35S]GTPγS functional assay; settings: read-out: GTPγS Opioid Receptor EC50 Delta [mean ± SEM]; procedure of Example 44
Compound,IC50 (human CYP2D6),Ki [4],GTPγS ORL-1 Emax [mean ± SEM] [7],EC50 [7],further results
CC1(C)[C@H]2CC[C@@H](CCN3[C@@H]4CCC[C@H]3C[C@@H](n3c(=O)c(-c5cccc(=O)n5CC(=O)O)nc5ccccc53)C4)[C@@H]1C2,18900 nM,–,–,–,–
C[C@@H]1C[C@@H]2C[C@H](C1)C[C@@H](N1[C@@H]3CCC[C@H]1C[C@@H](n1c(=O)c(-c4cc[nH]c(=O)c4)nc4ccccc41)C3)C2,> 20000 nM,–,–,–,–
C[C@@H]1C[C@@H]2C[C@H](C1)C[C@@H](N1[C@@H]3CCC[C@H]1C[C@@H](n1c(=O)c(-c4ccc[nH]c4=O)nc4ccccc41)C3)C2,> 20000 nM,–,–,–,–
C[C@@H]1C[C@@H]2C[C@H](C1)C[C@@H](N1[C@@H]3CC[C@H]1C[C@@H](n1c(=O)c(-c4ccc[nH]c4=O)nc4ccccc41)C3)C2,8000 nM,–,–,–,–
O=C(O)c1c[nH]c(=O)c(-c2nc3ccccc3n([C@H]3C[C@H]4CCC[C@@H](C3)N4[C@H]3C[C@@H]4CCC[C@@H](C4)C3)c2=O)c1,> 20000 nM,–,–,–,–
O=c1[nH]cccc1-c1nc2ccccc2n([C@H]2C[C@H]3CCC[C@@H](C2)N3C2CCCCCCCCC2)c1=O,> 20000 nM,–,–,–,–
O=c1[nH]cccc1-c1nc2ccccc2n([C@H]2C[C@H]3CCC[C@@H](C2)N3[C@@H]2C[C@@H]3CCCC[C@@H](C3)C2)c1=O,> 20000 nM,–,–,–,–
O=c1[nH]cccc1-c1nc2ccccc2n([C@H]2C[C@H]3CCC[C@@H](C2)N3[C@H]2C[C@@H]3CCC[C@@H](C3)C2)c1=O,> 20000 nM,–,–,–,–
O=c1[nH]cccc1-c1nc2ccccc2n([C@H]2C[C@H]3CC[C@@H](C2)N3[C@@H]2C[C@@H]3CCCC[C@@H](C3)C2)c1=O,> 20000 nM,–,–,–,–
O=c1[nH]cccc1-c1nc2ccccc2n([C@H]2C[C@H]3CC[C@@H](C2)N3[C@H]2C[C@@H]3CCC[C@@H](C3)C2)c1=O,> 20000 nM,–,–,–,–
O=c1[nH]cccc1-c1nc2ccccc2n([C@H]2C[C@H]3COC[C@@H](C2)N3[C@@H]2C[C@@H]3CCCC[C@@H](C3)C2)c1=O,> 20000 nM,–,–,–,–
O=c1cc(-c2nc3ccccc3n([C@H]3C[C@H]4CCC[C@@H](C3)N4[C@H]3C[C@@H]4CCC[C@@H](C4)C3)c2=O)cc[nH]1,> 20000 nM,–,–,–,–
O=c1ccc(-c2nc3ccccc3n([C@H]3C[C@H]4CCC[C@@H](C3)N4[C@H]3C[C@@H]4CCC[C@@H](C4)C3)c2=O)c[nH]1,> 20000 nM,–,–,–,–
O=c1cnc(-c2nc3ccccc3n([C@H]3C[C@H]4CCC[C@@H](C3)N4[C@H]3C[C@@H]4CCC[C@@H](C4)C3)c2=O)c[nH]1,> 20000 nM,–,–,–,–
"1-((1R,1′R,3r,3′R,5S,5′S)-[3,9′-bi(9′-azabicyclo[3.3.1]nonan)]-3′-yl)-3-(6-oxo-1,6-dihydropyridin-2-yl)quinoxalin-2(1H)-one",> 20000 nM,6.19 nM,30%,10.9 nM,Ki [1]: > 20000 nM; EC50 (human μ-opioid receptor [2]): > 20000 nM; EC50 (kappa opioid receptor [3]): > 20000 nM; Ki (human μ-opioid receptor [5]): 216 nM; Ki (kappa opioid receptor [6]): 10.9 nM
"1-((1R,3R,5S)-9-((1R,6S,8s)-bicyclo[4.3.1]decan-8-yl)-9-azabicyclo[3.3.1]nonan-3-yl)-3-(2-oxo-1,2-dihydropyridin-4-yl)quinoxalin-2(1H)-one",–,0.4 nM,23.7 ± 1.2%,3 nM,–
"2-(2-(4-((1R,1′R,3r,5′R,5S,5′S,7S)-7-methyl-[3,9′-bi(9′-azabicyclo[3.3.1]nonan)]-3′-yl)-3-oxo-3,4-dihydroquinoxalin-2-yl)-6-oxopiperidin-1-yl)acetic acid",> 20000 nM,2.96 nM,37.3 ± 1.7%,8.5 nM,Ki [1]: 5410 nM; EC50 (human μ-opioid receptor [2]): > 20000 nM; EC50 (kappa opioid receptor [3]): > 20000 nM; Ki (human μ-opioid receptor [5]): 115 nM
"2-(6-(4-((1R,1′R,3 r,3′R,5S,5′S)-[3,9′-bi(9′-azabicyclo[3.3.1]nonan)]-3′-yl)-3-oxo-3,4-dihydroquinoxalin-2-yl)-2-oxopyridin-1(2H)-yl)acetic acid",> 20000 nM,5.58 nM,24.0 ± 4.5%,18.7 nM,–
"2-(6-(4-((1R,1′R,3r,3′R,5S,5′S,7S)-7-methyl-[3,9′-bi(9′-azabicyclo[3.3.1]nonan)]-3′-yl)-3-oxo-3,4-dihydroquinoxalin-2-yl)-2-oxopyridin-1(2H)-yl)acetic acid",> 20000 nM,11 nM,35.3 ± 0.9%,29.1 nM,Ki [1]: 3650 nM; EC50 (human μ-opioid receptor [2]): > 20000 nM; EC50 (kappa opioid receptor [3]): > 20000 nM; Ki (human μ-opioid receptor [5]): 59.5 nM; Ki (kappa opioid receptor [6]): 63.3 nM
"3-(3-(4-((1R,1′R,3r,3R,5S,5′S)-[3,9′-bi(9′-azabicyclo[3.3.1]nonan)]-3′-yl)-3-oxo-3,4-dihydroquinoxalin-2-yl)-2-oxopyridin-1(2H)-yl)-2,2-dimethylpropanoic acid",> 20000 nM,39.9 nM,25.3 ± 2.7%,45.9 nM,Ki [1]: 523 nM; EC50 (human μ-opioid receptor [2]): > 20000 nM; EC50 (kappa opioid receptor [3]): > 20000 nM; Ki (human μ-opioid receptor [5]): 261 nM; Ki (kappa opioid receptor [6]): 148 nM; EC50 (human δ-opioid receptors): 486 nM
"3-(4-((1R,1′R,3r,3′R,5S,5′S)-[3,9′-bi(9′-azabicyclo[3.3.1]nonan)]-3′-yl)-3-oxo-3,4-dihydroquinoxalin-2-yl)-5,5-dimethylimidazolidine-2,4-dione",> 20000 nM,7.5 nM,27.7 ± 1.5%,17.9 nM,Ki [1]: > 20000 nM; EC50 (human μ-opioid receptor [2]): > 20000 nM; EC50 (kappa opioid receptor [3]): > 20000 nM; Ki (human μ-opioid receptor [5]): 222 nM; Ki (kappa opioid receptor [6]): 5 nM
"N-(1-(4-((1R,1′R,3r,3′R,5S,5′S)-[3,9′-bi(9′-azabicyclo[3.3.1]nonan)]-3′-yl)-3-oxo-3,4-dihydroquinoxalin-2-yl)-2-oxo-1,2,3,4-tetrahydropyrimidin-4-ypacetamide",> 20000 nM,3.1 nM,36 ± 3%,10.6 nM,Ki [1]: 8750 nM; EC50 (human μ-opioid receptor [2]): > 20000 nM; EC50 (kappa opioid receptor [3]): > 20000 nM; Ki (human μ-opioid receptor [5]): 38.2 nM; Ki (kappa opioid receptor [6]): 7.8 nM
